# Values quoted from earlier work, collected in patent US20160022811A1 (Teva Pharmaceutical Industries Ltd., priority 2013, published 2016).
# How the values were obtained:
# [1] = subcutaneous administration, after one hour
# [2] = system: patients
substance,measurement,setting,value
"L-glutamic acid polymer with L-alanine, L-lysine, L-tyrosine, acetate (salt) [glatiramer acetate]",remaining at the injection site,[1],10%
same,"association with immunosuppression, malignancy or other autoimmune diseases",[2]; 10- and 15-year follow-up visits,not associated
same,duration of immediate post-injection systemic reaction symptoms,"[2]; human, in vivo",up to 30 minutes
same,patients with immediate post-injection systemic reactions at least once,"[2]; human, in vivo",15-38%
